# US5840684A, “Glycopeptide antibiotic derivatives” (Eli Lilly and Company, priority 1995, dated 1998)
# System: Entercoccus faecium 180-1
# Experiment: broth micro-dilution MIC
# Type: cell-based
# Protocol: The formula I compounds have in vitro and in vivo activity against Gram-positive pathogenic bacteria. The MIC's were determined using a standard broth micro-dilution assay.
structure (smiles),measurement,value
"CN[C@H](CC(C)C)C(=O)N[C@H]1C(=O)N[C@@H](CC(N)=O)C(=O)N[C@H]2C(=O)N[C@H]3C(=O)N[C@H](C(=O)N[C@H](C(=O)O)c4cc(O)cc(O)c4-c4cc3ccc4O)[C@H](O)c3ccc(c(Cl)c3)Oc3cc2cc(c3O[C@@H]2O[C@H](CO)[C@@H](O)[C@H](O)[C@H]2O[C@H]2C[C@](C)(N)[C@H](O)[C@H](C)O2)Oc2ccc(cc2Cl)[C@H]1O [vancomycin, reference compound]",MIC,0.5 mg/L
